Among the data in PubChem BioAssay AID624352 (Sanford-Burnham Center for Chemical Genomics, 2012) are inhibition values, retold here.

The structures appear in SMILES notation. The entries are a selection whose mix differs from that of the whole data set. Active and inactive are the calls of the source.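 The calls were made as follows: active = inhibition of the luminescence signal of 40% or more relative to plate controls, in a single-dose primary screen at 18.75 µM; inactive = the rest.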

The nature of the experiment: blockers of HIF-2a driven luciferase – luminescence, 786-0 RCC cells, primary screen (AID 624352). The following applies: 786-0 RCC cells HIF-2a reporter, overnight, at 18.8 µM, stronger effect = higher value.
In the case of `CCC(=O)N(c1ccccc1)C1(COC)CCN(CCn2nnn(CC)c2=O)CC1`, the inhibition is inactive: 12.1%. In the case of `CCC(=O)N(c1ccccc1)C1(COC)CCN(CCc2cccs2)CC1`, the inhibition was inactive: 4.79%.

One may read the inhibition as the relative decrease from the control value, in per cent.
